Consider seven molecules from PMC8243516, “Inhibition of lysosomal phospholipase A2 predicts drug-induced phospholipidosis” (Journal of Lipid Research, 2021).

Series [1] addresses T1, LPLA2 (Mus musculus, UniProt Q8VEB4).
T1 sequence (Q8VEB4 34-412): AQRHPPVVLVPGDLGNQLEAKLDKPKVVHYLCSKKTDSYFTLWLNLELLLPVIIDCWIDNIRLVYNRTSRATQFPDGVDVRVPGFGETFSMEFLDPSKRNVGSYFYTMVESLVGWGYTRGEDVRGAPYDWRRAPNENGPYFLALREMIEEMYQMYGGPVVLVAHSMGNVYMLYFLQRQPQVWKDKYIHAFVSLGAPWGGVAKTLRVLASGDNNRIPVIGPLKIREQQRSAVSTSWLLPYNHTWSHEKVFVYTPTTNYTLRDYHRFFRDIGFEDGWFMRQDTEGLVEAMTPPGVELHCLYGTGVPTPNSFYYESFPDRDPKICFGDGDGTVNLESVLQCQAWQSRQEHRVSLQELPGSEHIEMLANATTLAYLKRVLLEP
The series can be described thus: LPLA2 thermal stability measurement (SYPRO Orange Tm).

Series [2] concerns the target T2, recombinant mouse LPLA2 (PLA2G15) (Mus musculus, UniProt Q8VEB4).
T2 sequence (Q8VEB4 34-412): T1 sequence (Q8VEB4 34-412)
The series can be described thus: Transacylase activity of LPLA2 (1-O-acyl-N-acetylsphingosine synthase, cell-free liposome assay). As to conditions: LPLA2 IC50, 1-O-acyl N-acetylsphingosine synthase activity, pH 4.5, DOPC/sulfatide liposomes.

Series [3] has as its system MDCK cells. The series can be described thus: Screening phospholipidosis assay (LipidTOX Red / NucBlue Live fluorescence ratio). As to conditions: LipidTOX Red to NucBlue Live fluorescence ratio, 24 h.

Read-outs that look alike come from different tables or passages of the source.

As to `CN1[C@@H]2CC[C@H]1C[C@@H](OC(c1ccccc1)c1ccccc1)C2` [Benztropine], the “(ΔTm)c-(ΔTm)d, difference in melting temperature of LPLA2 alone or in the presence of drug” value (shortened to “(ΔTm)c-(ΔTm)d, difference”) in series [1] (N=3 ± SD) was 0.30 ± 0.1 °C.

For the molecule `C[C@]12C=CC(=O)N[C@@H]1CC[C@@H]1[C@@H]2CC[C@]2(C)[C@@H](C(=O)Nc3cc(C(F)(F)F)ccc3C(F)(F)F)CC[C@@H]12` [Dutasteride, (1S,2R,7R,10S,11S,14S,15S)-N-[2,5-bis (trifluoromethyl)phenyl]-2,15-dimethyl-5-oxo-6-azatetracyclo[8.7.0.0^2,^7.0^11,^15]heptadec-3-ene-14-carboxamide], in series [1], the “(ΔTm)c-(ΔTm)d, difference” value was -0.45 ± 0.0 °C.

Consider `c1ccc2c(CC3=NCCN3)cccc2c1` [Naphazoline, 2-(naphthalen-1-ylmethyl)-4,5-dihydro-1H-imidazole], for which, in series [2], the IC50 came out at 6.98 µM. Besides, in series [1] (N=3 ± SD), the “(ΔTm)c-(ΔTm)d, difference” value came out at 0 °C.

With `CSC(=N)N` [S-methylisothiourea], the “Ratio (15 μM)” value in series [3] stood at 0.38.

For `CN(C)CCC=C1c2ccccc2COc2ccccc21` [Doxepin, dimethyl(3-{9-oxatricyclo[9.4.0.0ˆ[1]]pentadeca-1(15),3,5,7,11,13-hexaen-2-ylidene}propyl)amine], the “(ΔTm)c-(ΔTm)d, difference” value in series [1] (N=3 ± SD) amounted to 0.12 ± 0.5 °C.

Regarding `CCN(CC)CCOc1ccc(C(=C(Cl)c2ccccc2)c2ccccc2)cc1` [Clomifene], the “Ratio (15 μM)” value in series [3] was 0.38. In series [1] (N=3 ± SD), the “(ΔTm)c-(ΔTm)d, difference” value came out at 1.07 ± 0.1 °C.

For `C[C@]12C[C@H](O)[C@H]3[C@@H](CCC4=CC(=O)CC[C@@]43C)[C@@H]1CC[C@@H]2C(=O)CO` [Corticosterone, (1S,2R,10S,11S,14S,15S,17S)-17-hydroxy-14-(2-hydroxyacetyl)-2,15-dimethyltetracyclo[8.7.0.0^2,^7.0^11,^15]heptadec-6-en-5-one], the “Ratio (15 μM)” value in series [3] is recorded as 0.28.

Usually IC50 stands for the concentration at which inhibition is half-maximal.
